# Literature values as cited in publication PMC2696799 (European journal of immunology, 2009).
# Molecular target: CD80 ECD (Homo sapiens) (UniProt P33681)
# Conditions: cited from earlier work
substance,measurement,value
CTLA4 ECD (from UniProt P16410),pKd,5.70

# pKd: −log10 of the molar value.
